Molecular target: T1, ECE-1 (Bos taurus, UniProt P42891)
T1 construct: The entire coding regions from bovine ECE-1; made in house
T1 sequence (P42891 with tags, fused parts or gaps A87G/A695G limits assumed): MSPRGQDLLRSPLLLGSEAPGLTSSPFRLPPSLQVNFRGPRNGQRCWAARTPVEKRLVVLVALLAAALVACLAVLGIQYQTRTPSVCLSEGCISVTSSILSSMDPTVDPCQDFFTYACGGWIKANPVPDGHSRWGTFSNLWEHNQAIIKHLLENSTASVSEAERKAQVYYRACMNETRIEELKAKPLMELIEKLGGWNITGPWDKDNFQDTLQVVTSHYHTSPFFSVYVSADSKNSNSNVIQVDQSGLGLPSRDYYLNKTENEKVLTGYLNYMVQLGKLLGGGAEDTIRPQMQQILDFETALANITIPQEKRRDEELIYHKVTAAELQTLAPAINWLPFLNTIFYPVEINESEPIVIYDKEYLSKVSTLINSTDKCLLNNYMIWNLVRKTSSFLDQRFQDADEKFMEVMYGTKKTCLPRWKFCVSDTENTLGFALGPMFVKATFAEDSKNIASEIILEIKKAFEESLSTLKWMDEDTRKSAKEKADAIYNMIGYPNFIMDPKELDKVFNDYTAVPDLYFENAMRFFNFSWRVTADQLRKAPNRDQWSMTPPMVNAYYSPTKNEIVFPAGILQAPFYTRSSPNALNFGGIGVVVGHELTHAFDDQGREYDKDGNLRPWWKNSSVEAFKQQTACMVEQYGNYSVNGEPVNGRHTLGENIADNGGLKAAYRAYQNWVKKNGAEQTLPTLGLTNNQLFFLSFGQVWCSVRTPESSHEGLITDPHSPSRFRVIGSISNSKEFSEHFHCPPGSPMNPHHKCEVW
Test: ECE activity in solubilized CHO/ECE-1 membranes/homogenates, protease inhibitors (generation of mature ET-1 from big ET-1 by EIA)
Format: biochemical, bovine
Details: read-out: ECE activity (% of ECE activity without inhibitors); inhibitor 100 μM; means of duplicate assays from two independent experiments

Sequences of proteins named here, by UniProt entry; tags and fusion partners are left off. A change or cut given only in a name is not applied to a line headed by its entry.
UniProt P42891: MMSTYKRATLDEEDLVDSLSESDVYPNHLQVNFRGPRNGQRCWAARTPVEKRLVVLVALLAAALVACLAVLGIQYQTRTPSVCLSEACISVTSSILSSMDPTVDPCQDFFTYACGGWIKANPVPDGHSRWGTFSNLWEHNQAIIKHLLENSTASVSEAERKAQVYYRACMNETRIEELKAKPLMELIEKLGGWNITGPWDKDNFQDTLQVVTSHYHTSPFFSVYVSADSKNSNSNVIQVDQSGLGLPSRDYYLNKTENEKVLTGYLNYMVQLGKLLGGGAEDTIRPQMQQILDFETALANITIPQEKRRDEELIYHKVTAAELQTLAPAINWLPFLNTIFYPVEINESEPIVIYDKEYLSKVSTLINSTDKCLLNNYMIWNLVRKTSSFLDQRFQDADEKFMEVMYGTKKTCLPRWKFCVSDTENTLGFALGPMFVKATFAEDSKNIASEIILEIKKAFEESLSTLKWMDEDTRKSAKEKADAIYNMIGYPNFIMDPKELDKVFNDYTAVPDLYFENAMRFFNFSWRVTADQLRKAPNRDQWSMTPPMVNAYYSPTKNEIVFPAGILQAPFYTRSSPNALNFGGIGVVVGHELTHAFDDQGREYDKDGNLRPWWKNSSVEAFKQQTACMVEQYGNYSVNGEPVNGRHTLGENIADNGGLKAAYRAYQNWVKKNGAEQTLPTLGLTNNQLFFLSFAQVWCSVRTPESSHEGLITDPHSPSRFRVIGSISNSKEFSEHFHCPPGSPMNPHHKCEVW

SMILES: CC(C)C[C@H](NP(=O)(O)O[C@@H]1O[C@@H](C)[C@H](O)[C@@H](O)[C@H]1O)C(=O)N[C@@H](Cc1c[nH]c2ccccc12)C(=O)O [Phosphoramidon]
- remaining ECE activity (% of control) at 100 µM: 6%
